Data: PubChem BioAssay (NCI)
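96-well plates; 48 h exposure; 5 concentrations. Endpoints by linear interpolation between flanking doses. Not reached: highest tested concentration assigned. At the TGI there is no net growth.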

System: MDA-MB-468 breast
Assay: DTP human tumour cell line panel, 48 h

O=Cc1ccc(N(CCCl)CCCl)cc1Cl
TGI: 62.6 nM
